This assay addresses T1, Saccharomyces cerevisiae pheromone GPCR ScSte2 (Saccharomyces cerevisiae), D6VTK4.
T1 chain: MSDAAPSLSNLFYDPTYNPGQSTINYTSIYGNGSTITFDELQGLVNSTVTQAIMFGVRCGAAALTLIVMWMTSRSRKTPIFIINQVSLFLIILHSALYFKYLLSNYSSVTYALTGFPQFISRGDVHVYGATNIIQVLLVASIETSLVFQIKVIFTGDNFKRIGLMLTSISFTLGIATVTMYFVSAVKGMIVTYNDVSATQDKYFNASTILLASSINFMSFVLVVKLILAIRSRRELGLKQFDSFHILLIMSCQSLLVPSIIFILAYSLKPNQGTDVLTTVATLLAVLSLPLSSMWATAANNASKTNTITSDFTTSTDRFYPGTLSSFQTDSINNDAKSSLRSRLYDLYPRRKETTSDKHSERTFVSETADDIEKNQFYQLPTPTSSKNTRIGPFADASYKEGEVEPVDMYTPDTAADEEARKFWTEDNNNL
In words: cell-based or functional assay.

Regarding WHWAQLKPGQPMY (modifications not checked) [ScPep4A], the LogEC50 is -5.4 log M.
